The list shows a part of the results, in another mix than the full data. Some salts and complexes are drawn in separate pieces, as the source files them; their charges need not balance. Calls of active or inactive are those of the source. Cut-off read from the data, not from the text of the source: active = activation above about 4.9%; inactive = the rest.

Sequences of proteins named here, by UniProt entry; tags and fusion partners are left off.
UniProt Q8TDV0, whole entry: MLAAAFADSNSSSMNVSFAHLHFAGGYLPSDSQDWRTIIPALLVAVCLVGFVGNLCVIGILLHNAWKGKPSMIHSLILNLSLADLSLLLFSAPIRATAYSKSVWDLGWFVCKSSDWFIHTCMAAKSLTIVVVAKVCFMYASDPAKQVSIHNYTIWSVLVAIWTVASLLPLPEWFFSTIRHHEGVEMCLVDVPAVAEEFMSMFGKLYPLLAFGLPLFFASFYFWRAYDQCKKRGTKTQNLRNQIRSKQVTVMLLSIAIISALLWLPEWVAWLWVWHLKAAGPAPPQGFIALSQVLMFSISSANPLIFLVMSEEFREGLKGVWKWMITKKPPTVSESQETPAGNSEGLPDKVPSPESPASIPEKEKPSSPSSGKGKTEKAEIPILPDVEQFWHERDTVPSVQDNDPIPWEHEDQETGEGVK

For this test, the target named is G-protein coupled receptor 151 (Homo sapiens) (UniProt Q8TDV0). Put plainly: activators of human GPR151, primary screen, cell-based, PathHunter beta-arrestin, luminescence (AID 1508602).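 Note: 0% = median of compound wells and 100% = cells with positive control.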 The note with it: PathHunter beta-arrestin GPR151 cells, at 11.2 µM, active compounds read high.
`COCC(CN(C)[N+](=O)[O-])O[N+](=O)[O-]` (configuration not stated): the activation was inactive: 2.77%.

Regarding `O=[N+]([O-])c1cc([N+](=O)[O-])c(N2CCCCCC2)c([N+](=O)[O-])c1`, the activation was inactive: -0.666%.

On to `CP(=O)(OCCOc1ccccc1)OCCOc1ccccc1`, for which the activation is inactive: -1.61%.

For the compound `CP(=O)(Nc1ccc(Cl)cc1Cl)Oc1ccccc1` (configuration not stated), the activation is inactive: -0.136%.

With `CCCCOc1ccc(NP(C)(=O)Oc2ccccc2OC)cc1` (configuration not stated), the activation was inactive: -0.64%.

With `C/C1=C2N=C(/C=C3N=C(/C(C)=C4\[N-][C@@](C)([C@@H]5N=C1[C@](C)(CCC(=O)NC[C@@H](C)OP(=O)(O)O[C@H]1[C@@H](O)[C@@H](n6cnc7cc(C)c(C)cc76)O[C@@H]1CO)[C@H]5CC(N)=O)[C@@](C)(CC(N)=O)[C@@H]4CCC(N)=O)[C@@](C)(CC(N)=O)[C@@H]\3CCC(N)=O)C(C)(C)[C@@H]/2CCC(N)=O.[C-]#N.[Co+3]`, the activation was inactive: -8.99%.

As to `COc1ccccc1OP(C)(=O)Nc1ccc(C)c(C)c1` (configuration not stated), the activation was inactive: 1.45%.

With `COc1ccc(OP(C)(=O)Nc2ccccc2Br)cc1` (configuration not stated), the activation is inactive: 0.245%.

Take `N1=Nc2nonc2N=Nc2nonc21`: the activation was inactive: -0.0652%.

Regarding `C/C1=C2N=C(/C=C3N=C(/C(C)=C4\[N-]C(C(CC(N)=O)C4(C)CCC(=O)NCC(C)OP(=O)([O-])OC4C(CO)OC(n5cnc6cc(C)c(C)cc65)C4O)C4(C)N=C1C(CCC(N)=O)C4(C)CC(N)=O)C(CCC(N)=O)C\3(C)C)C(CCC(N)=O)C/2(C)CC(N)=O.C/C1=C2N=C(/C=C3N=C(/C(C)=C4\[N-]C(C(CC(N)=O)C4(C)CCC(=O)NCC(C)OP(=O)([O-])OC4C(CO)OC(n5cnc6cc(C)c(C)cc65)C4O)C4(C)N=C1C(CCC(N)=O)C4(C)CC(N)=O)C(CCC(N)=O)C\3(C)C)C(CCC(N)=O)C/2(C)CC(N)=O.[C-]#N.[Co+3]` (configuration not stated), the activation is inactive: -7.17%.

Take `CN(c1nc2nonc2nc1N(C)[N+](=O)[O-])[N+](=O)[O-]`: the activation was inactive: -0.554%.

For the compound `CC(C)c1ccc(OP(C)(=O)O)cc1`, the activation is inactive: 0.0803%.

For the compound `NNc1c([N+](=O)[O-])cc([N+](=O)[O-])cc1[N+](=O)[O-]`, the activation is inactive: -0.116%.

As for `Nc1nonc1-[n+]1nc2nonc2[n-]1`, the activation is inactive: 3.96%.

`CP(=O)(Nc1cccc(Cl)c1)Nc1cccc(Cl)c1`: the activation was inactive: -0.3%.

Turning to `CCOC(=O)c1ccc(NP(C)(=O)Oc2ccc(Cl)cc2)cc1` (configuration not stated), the activation was inactive: -0.47%.

As for `CP(=O)(OC12CC3CC(CC(C3)C1)C2)OC12CC3CC(CC(C3)C1)C2`, the activation was inactive: -0.916%.

`O=[N+]([O-])c1cc([N+](=O)[O-])c(Nc2ccccc2)c([N+](=O)[O-])c1`: the activation is inactive: 1.1%.

In the case of `[O-][n+]1onc2c1c1no[n+]([O-])c1c1no[n+]([O-])c21`, the activation was inactive: -3.35%.

As to `Cc1c([N+](=O)[O-])cc([N+](=O)[O-])c(Nc2ccc(C(=O)O)cc2)c1[N+](=O)[O-]`, the activation is inactive: -3.26%.

For the compound `COc1cccc(C(OP(C)(=O)O)C(F)(F)F)c1` (configuration not stated), the activation was inactive: 1.87%.

Regarding `CP(=O)(Nc1ccc(Cl)cc1)Oc1ccc(F)cc1` (configuration not stated), the activation was inactive: -0.655%.

As for `CN(C)/C=C(\C=O)c1c([N+](=O)[O-])cc([N+](=O)[O-])cc1[N+](=O)[O-]`, the activation is inactive: 1.63%.

As for `CN(C)C(=O)c1c([N+](=O)[O-])cc([N+](=O)[O-])cc1[N+](=O)[O-]`, the activation is inactive: 0.537%.

As for `O=[N+]([O-])c1cc([N+](=O)[O-])c(Nc2ccccc2CO)c([N+](=O)[O-])c1`, the activation is inactive: 0.398%.

As for `CP(=O)(Nc1ccc(F)c(Cl)c1)Oc1ccccc1` (configuration not stated), the activation is inactive: -0.214%.

Consider `O=C(Nc1ccccc1O)c1c([N+](=O)[O-])cc([N+](=O)[O-])cc1[N+](=O)[O-]`, for which the activation is inactive: -1.44%.

In the case of `CN1CCCC1=C1c2cc([N+](=O)[O-])cc([N+](=O)[O-])c2-c2c1cc([N+](=O)[O-])cc2[N+](=O)[O-]`, the activation was inactive: 0.361%.

`CCc1ccc(OP(C)(=O)Nc2ccc(I)cc2)cc1` (configuration not stated): the activation was inactive: -0.696%.

In the case of `COc1ccc(OP(C)(=O)Nc2ccc(Br)cc2)cc1` (configuration not stated), the activation was inactive: 0.948%.

Take `O=[N+]([O-])c1cc([N+](=O)[O-])c(NCc2ccccc2)c([N+](=O)[O-])c1`: the activation is inactive: -1.6%.

On to `COc1ccccc1OP(C)(=O)Nc1c(C)n(C)n(-c2ccccc2)c1=O` (configuration not stated), for which the activation is inactive: 0.424%.

As to `OCCSCCO`, the activation is inactive: 1.31%.

Regarding `CP(=O)(Oc1ccccc1)N1CCOC1=O` (configuration not stated), the activation was inactive: -0.364%.

Consider `O=[N+]([O-])c1cc([N+](=O)[O-])c(N2CCOCC2)c([N+](=O)[O-])c1`, for which the activation was inactive: -0.727%.

As to `COC(=O)Nc1nc2ccccc2[nH]1.O=C1CCCN1c1ccc(S(=O)(=O)O)cc1[N+](=O)[O-]`, the activation was inactive: -0.456%.

In the case of `CCN(CC)c1c([N+](=O)[O-])cc([N+](=O)[O-])cc1[N+](=O)[O-]`, the activation was inactive: 0.231%.

As to `CP(=O)(Nc1ccc2c(c1)OCCO2)Oc1ccccc1` (configuration not stated), the activation was inactive: 0.872%.

Consider `Cc1ccccc1NP(C)(=O)Nc1ccccc1C`, for which the activation was inactive: -1.23%.

Turning to `COc1ccc(OP(C)(=O)Nc2ccccc2)cc1` (configuration not stated), the activation is inactive: -1%.

For the compound `[N-]=[N+]=NCN1c2nonc2N(CN=[N+]=[N-])c2nonc21`, the activation was inactive: -0.966%.

With `Cc1c([N+](=O)[O-])c(C)c([N+](=O)[O-])c(C)c1[N+](=O)[O-]`, the activation was inactive: 2.09%.

As for `Cc1ccc(Cl)c(OP(C)(=O)Nc2ccc(F)cc2)c1` (configuration not stated), the activation was inactive: 0.179%.

`CP(=O)(O)OC(c1ccccc1)C(F)(F)C(F)(F)F` (configuration not stated): the activation was inactive: -0.404%.

With `O=[N+]([O-])c1cc([N+](=O)[O-])c(NCC2CCS(=O)(=O)C2)c([N+](=O)[O-])c1` (configuration not stated), the activation was inactive: -0.558%.

On to `Cc1cc(-c2cccc3ccccc23)c(C)cn1.O=[N+]([O-])c1cc([N+](=O)[O-])c(O)c([N+](=O)[O-])c1`, for which the activation was inactive: 0.729%.

In the case of `CP(=O)(O)Oc1cccc(Cl)c1Cl`, the activation was active: 4.92%.

In the case of `C=CCN1CCN(CCOC(=O)C(O)(c2ccccc2)c2ccccc2)CC1`, the activation was inactive: 0.617%.

In the case of `O=[N+]([O-])c1ccc(Nc2c([N+](=O)[O-])cc([N+](=O)[O-])cc2[N+](=O)[O-])cc1`, the activation was inactive: -0.495%.

On to `CN(C)CCOC(=O)C(O)(c1ccccc1)C1CCCCC1` (configuration not stated), for which the activation was inactive: 0.321%.

With `O=[N+]([O-])c1cc([N+](=O)[O-])c(Nc2c([N+](=O)[O-])cc([N+](=O)[O-])cc2[N+](=O)[O-])c([N+](=O)[O-])c1`, the activation is inactive: -1.36%.

`CC(=O)OC1(C#N)CN2CCC1CC2` (configuration not stated): the activation is inactive: 1.58%.

For the compound `COc1ccc(NP(C)(=O)Oc2ccccc2OC)cc1` (configuration not stated), the activation was inactive: -0.804%.

As to `CP(=O)(O)OC(c1ccccc1)C(Cl)(Cl)Cl` (configuration not stated), the activation is inactive: 0.782%.

As to `Cc1ccc(NP(C)(=O)Oc2ccc(Cl)cc2)cc1` (configuration not stated), the activation is inactive: 0.859%.

As to `COc1cc2c(cc1NP(C)(=O)Oc1ccccc1)oc1ccccc12` (configuration not stated), the activation was inactive: 0.416%.

As to `CP(=O)(Nc1ccccc1)Oc1ccc(F)cc1` (configuration not stated), the activation was inactive: -1.09%.

In the case of `O=C(c1c([N+](=O)[O-])cc([N+](=O)[O-])cc1[N+](=O)[O-])N1CCOCC1`, the activation was inactive: 0.135%.

Consider `CCOC(=O)c1ccc(NP(C)(=O)Oc2ccc(F)cc2)cc1` (configuration not stated), for which the activation was inactive: -0.0097%.

As for `Cc1ccc(Cl)c(OP(C)(=O)Nc2cccnc2)c1` (configuration not stated), the activation is inactive: 0.151%.

As to `O=C(OCCN1CCN(CCOCc2ccccc2)CC1)C(O)(c1ccccc1)c1ccccc1`, the activation is inactive: 1.23%.

As for `CP(=O)(Nc1cccnc1)Oc1ccc(Cl)cc1` (configuration not stated), the activation was inactive: 0.738%.

`Cc1cc([N+](=O)[O-])c(NCC(C)([N+](=O)[O-])[N+](=O)[O-])c([N+](=O)[O-])c1[N+](=O)[O-]`: the activation was inactive: 1.13%.

For the compound `CCP1(=O)Oc2cc(C(C)(C)C)cc(C(C)(C)C)c2O1` (configuration not stated), the activation was inactive: 0.856%.

Regarding `Nc1c([N+](=O)[O-])cc([N+](=O)[O-])c2nonc12`, the activation is inactive: 0.455%.

For `C=CCNc1c([N+](=O)[O-])cc([N+](=O)[O-])c(C)c1[N+](=O)[O-]`, the activation was inactive: 0.0096%.

Consider `CP(=O)(Nc1ccccc1F)Oc1ccccc1` (configuration not stated), for which the activation is inactive: 2.92%.
